Target: Carbonic anhydrase (Methanosarcina thermophila, UniProt P40881)
Test: Inhibition of archaeon Methanosarcina thermophila gamma-CA after 15 mins by stopped-flow/Co2 hydration assay

By UniProt entry, the sequences of proteins in these tests, tags left out. Residues count along the entry.
UniProt P40881, 35-247 limits assumed: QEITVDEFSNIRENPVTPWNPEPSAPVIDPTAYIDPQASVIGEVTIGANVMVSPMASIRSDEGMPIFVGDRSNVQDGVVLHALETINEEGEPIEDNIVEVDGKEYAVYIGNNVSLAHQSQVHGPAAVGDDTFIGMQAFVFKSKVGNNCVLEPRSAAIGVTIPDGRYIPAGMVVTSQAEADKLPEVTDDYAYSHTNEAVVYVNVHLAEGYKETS

N#CO
Ki: 90 µM

From ChEMBL document CHEMBL3593236, “Cloning, characterization and anion inhibition studies of a new γ-carbonic anhydrase from the Antarctic bacterium Pseudoalteromonas haloplanktis” (Bioorg Med Chem, 2015)
